In this experiment the test system is H1/NCa HA (A/New Caledonia/20/1999 (H1N1)). In kind it is binding, influenza A virus.

For the molecule `CSCC[C@@H]1NC(=O)CNC(=O)CNC(=O)[C@H](C)NC(=O)[C@H](C(C)C)NC(=O)CNC(=O)[C@H](CC(C)C)NC(=O)[C@@H]2CCCN2C(=O)[C@H](CC(=O)O)NC(=O)[C@H](CCC(=O)O)NC(=O)[C@H](Cc2ccc(O)cc2)NC(=O)[C@H](CC(C)C)NC(=O)[C@H](CO)NC(=O)CNC(=O)[C@H]2CCCN2C(=O)[C@H](C(C)C)NC(=O)CNC1=O` [CP5], the concentration for half-maximal inhibition (IC50) – broadly, the concentration that inhibits the measured activity by half – is 11.2 µM.
